This passage reports IC50 results from patent publication US9738637B2, “Histone demethylase inhibitors” (Quanticel Pharmaceuticals, Inc., priority 2013, dated 2017).

Amino acid sequences for entries named in this document (tags omitted). Residues count along the entry.
UniProt Q9H3R0, 2-372: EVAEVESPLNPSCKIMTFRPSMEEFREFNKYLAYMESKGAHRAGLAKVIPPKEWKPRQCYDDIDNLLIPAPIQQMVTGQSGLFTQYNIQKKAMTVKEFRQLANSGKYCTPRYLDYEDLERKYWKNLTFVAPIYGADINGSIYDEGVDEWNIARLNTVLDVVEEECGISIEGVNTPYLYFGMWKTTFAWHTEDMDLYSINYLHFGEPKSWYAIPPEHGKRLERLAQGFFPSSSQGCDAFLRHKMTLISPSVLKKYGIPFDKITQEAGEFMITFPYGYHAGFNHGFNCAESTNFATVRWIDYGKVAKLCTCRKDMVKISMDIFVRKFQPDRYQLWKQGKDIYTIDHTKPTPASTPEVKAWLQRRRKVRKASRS
UniProt O75164, 1-350: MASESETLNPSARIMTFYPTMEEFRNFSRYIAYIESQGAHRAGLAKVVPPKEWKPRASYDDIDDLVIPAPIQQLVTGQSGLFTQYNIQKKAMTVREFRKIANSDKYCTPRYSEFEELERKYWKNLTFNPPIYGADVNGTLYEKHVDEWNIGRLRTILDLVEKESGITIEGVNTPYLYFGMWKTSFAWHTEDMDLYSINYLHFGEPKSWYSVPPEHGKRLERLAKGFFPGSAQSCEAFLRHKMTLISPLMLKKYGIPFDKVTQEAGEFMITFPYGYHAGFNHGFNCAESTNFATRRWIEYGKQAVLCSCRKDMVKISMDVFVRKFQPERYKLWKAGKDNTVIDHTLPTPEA
UniProt P29375, 1-1090: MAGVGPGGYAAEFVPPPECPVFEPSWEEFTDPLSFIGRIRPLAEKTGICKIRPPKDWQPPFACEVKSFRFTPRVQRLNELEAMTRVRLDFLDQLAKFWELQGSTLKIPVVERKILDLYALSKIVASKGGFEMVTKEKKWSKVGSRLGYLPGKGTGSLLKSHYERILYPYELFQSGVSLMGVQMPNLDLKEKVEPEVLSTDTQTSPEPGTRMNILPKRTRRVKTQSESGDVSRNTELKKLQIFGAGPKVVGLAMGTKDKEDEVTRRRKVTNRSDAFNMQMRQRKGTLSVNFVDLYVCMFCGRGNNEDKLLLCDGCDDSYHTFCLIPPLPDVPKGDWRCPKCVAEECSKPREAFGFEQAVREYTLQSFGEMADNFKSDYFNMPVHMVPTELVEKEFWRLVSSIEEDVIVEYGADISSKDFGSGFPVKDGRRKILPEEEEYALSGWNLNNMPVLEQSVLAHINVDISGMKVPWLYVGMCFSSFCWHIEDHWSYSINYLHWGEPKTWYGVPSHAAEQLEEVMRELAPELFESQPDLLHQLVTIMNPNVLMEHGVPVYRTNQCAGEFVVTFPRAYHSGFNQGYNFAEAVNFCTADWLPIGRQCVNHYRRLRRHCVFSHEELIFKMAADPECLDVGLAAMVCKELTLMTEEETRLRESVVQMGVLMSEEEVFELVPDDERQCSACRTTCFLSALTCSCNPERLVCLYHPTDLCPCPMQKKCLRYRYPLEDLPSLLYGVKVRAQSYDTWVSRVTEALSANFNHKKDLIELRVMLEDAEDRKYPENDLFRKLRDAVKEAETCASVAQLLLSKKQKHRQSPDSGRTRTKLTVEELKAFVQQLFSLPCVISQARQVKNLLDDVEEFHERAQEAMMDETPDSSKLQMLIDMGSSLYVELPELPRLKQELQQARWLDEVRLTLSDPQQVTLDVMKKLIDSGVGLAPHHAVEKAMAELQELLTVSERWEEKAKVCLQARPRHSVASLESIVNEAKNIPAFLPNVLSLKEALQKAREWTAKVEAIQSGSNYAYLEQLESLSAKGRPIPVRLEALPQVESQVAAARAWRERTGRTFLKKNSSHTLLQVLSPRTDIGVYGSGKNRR
UniProt Q9UGL1, 2-751: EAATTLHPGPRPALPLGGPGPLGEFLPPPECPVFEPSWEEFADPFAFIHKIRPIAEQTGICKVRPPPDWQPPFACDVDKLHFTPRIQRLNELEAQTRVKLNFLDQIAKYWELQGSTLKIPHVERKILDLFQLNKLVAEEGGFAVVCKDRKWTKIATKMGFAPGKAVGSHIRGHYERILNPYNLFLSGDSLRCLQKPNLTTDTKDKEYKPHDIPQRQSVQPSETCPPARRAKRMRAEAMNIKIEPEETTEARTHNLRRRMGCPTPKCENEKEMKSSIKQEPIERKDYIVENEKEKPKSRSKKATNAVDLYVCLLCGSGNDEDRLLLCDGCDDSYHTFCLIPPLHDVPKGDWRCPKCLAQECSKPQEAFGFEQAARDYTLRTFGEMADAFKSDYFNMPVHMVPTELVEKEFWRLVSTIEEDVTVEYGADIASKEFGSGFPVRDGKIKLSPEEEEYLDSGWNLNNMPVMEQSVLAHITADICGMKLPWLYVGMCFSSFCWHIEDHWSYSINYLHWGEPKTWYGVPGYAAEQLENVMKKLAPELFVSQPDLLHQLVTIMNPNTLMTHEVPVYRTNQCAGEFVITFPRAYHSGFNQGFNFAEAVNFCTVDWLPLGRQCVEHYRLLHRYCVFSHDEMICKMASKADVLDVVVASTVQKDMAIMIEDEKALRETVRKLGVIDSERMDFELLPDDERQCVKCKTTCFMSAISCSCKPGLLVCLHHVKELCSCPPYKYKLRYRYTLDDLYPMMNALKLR

pIC50: −log10 of the molar value.

Common to all, as to assay type: biochemical
One test addresses JMJD2C (Homo sapiens (Human), UniProt Q9H3R0). The test is described as follows: JMJD2C in vitro enzyme inhibition assay (TR-FRET). To be noted: read-out: IC50 JNJD2C. How it is done: (§1) This assay determines the ability of a test compound to inhibit Jarid1A, Jarid1B, JMJD2C, and JMJD2A demethylase activity.
(§2) Reaction product was determined quantitatively by TR-FRET after the addition of detection reagent Phycolink Streptavidin-allophycocyanin (Prozyme) and Europium-anti-di-methylated histone H3 lysine 9 (H3K9me2) antibody (PerkinElmer) in the presence of 5 mM EDTA in LANCE detection buffer (PerkinElmer) at a final concentration of 50 nM and 1 nM, respectively.
The assay reaction was initiated by the following: 2 μl of the mixture of 900 nM H3K9me3-biotin labeled peptide and 6 μM alpha-ketoglutaric acid with 2 μl of 11-point serial diluted inhibitor in 3% DMSO were added to each well of the plate, followed by the addition of 2 μl of 0.9 nM JMJD2C to initiate the reaction. The reaction mixture was incubated at room temperature for 30 minutes, and terminated by the addition of 6 μl of 5 mM EDTA in LANCE detection buffer containing 100 nM Phycolink Streptavidin-allophycocyanin and 2 nM Europium-anti-H3K9me2 antibody.
(§3) The ability of the compounds disclosed herein to inhibit demethylase activity was quantified and the respective IC50 value was determined.
For orientation: In TR-FRET formats the signal depends on donor and acceptor labels being close together.

The next test has as its target JMJD2A (Homo sapiens (Human), UniProt O75164). The test is described as follows: JMJD2A in vitro enzyme inhibition assay (TR-FRET). How it is done:
as §1, §2
The assay reaction was initiated by the following: 2 μl of the mixture of 900 nM H3K9me3-biotin labeled peptide and 6 μM alpha-ketoglutaric acid with 2 μl of 11-point serial diluted inhibitor in 3% DMSO were added to each well of plate, followed by the addition of 2 μl of 6 nM JMJD2A to initiate the reaction. The reaction mixture was incubated at room temperature for 30 minutes, and terminated by the addition of 6 μl of 5 mM EDTA in LANCE detection buffer containing 100 nM Phycolink Streptavidin-allophycocyanin and 2 nM Europium-anti-H3K9me2 antibody.
as §3

In another test the target is Jarid1A (Homo sapiens (Human), UniProt P29375). The experiment in a line: Jarid1A in vitro enzyme inhibition assay (TR-FRET). As for the experimental part: as §1
The enzymatic assay of Jarid1A activity is based upon Time Resolved-Fluorescence Resonance Energy Transfer (TR-FRET) detection.
The assay reaction was initiated by the following: 2 μl of the mixture of 900 nM H3K4me3-biotin labeled peptide and 6 μM alpha-ketoglutaric acid with 2 μl of 11-point serial diluted inhibitor in 3% DMSO was added to each well of plate, followed by the addition of 2 μl of 3 nM Jarid1A to initiate the reaction. The reaction mixture was incubated at room temperature for 30 minutes, and terminated by the addition of 6 μl of 5 mM EDTA in LANCE detection buffer containing 50 nM Phycolink Streptavidin-allophycocyanin and 2 nM Europium-anti-H3K4me1-2 antibody.
as §3

The target in the next test is Jarid1B (Homo sapiens (Human), UniProt Q9UGL1). The experiment in a line: Jarid1B in vitro enzyme inhibition assay (TR-FRET). How it is done: as §1
The reaction mixture was incubated at room temperature for 30 minutes, and terminated by the addition of 6 μl of 5 mM EDTA in LANCE detection buffer containing 50 nM Phycolink Streptavidin-allophycocyanin and 2 nM Europium-anti-H3K4me1-2 antibody.
as §3

The term pIC50 denotes the negative decadic logarithm of the IC50, by convention in mol/L. As to `COc1cc(Cc2cc3nccc(C(=O)O)c3[nH]2)ccc1Cl` [Example 128, 2-(4-chloro-3-methoxybenzyl)-1H-pyrrolo[3,2-b]pyridine-7-carboxylic acid], the pIC50 was > 7.00 on JMJD2C, 6.00 to 7.00 against JMJD2A, 5.00 to 6.00 against Jarid1A and 5.00 to 6.00 on Jarid1B.
